Ab-14 heavy chain CDR variants: yeast mating affinities

Values reported by Li et al. 2023, doi:10.1038/s41467-023-39022-2 (FLAb copy).

All variants were tested on one target, the spike HR2 peptide PDVDLGDISGINAS (SARS-CoV-2).

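Phage display of a naive human antibody library on the peptide gave the parent. The variants were designed computationally from a first round of random CDR variants and then made and measured. Their group label is 14H_GP_Gen (GP: Gaussian process model; Gen: genetic algorithm; a sequence that several methods proposed may carry one label only). AlphaSeq pools MATa yeast showing the antibodies with MATalpha yeast showing the peptide. Mating (16 h, 30 °C) was followed by selection of diploids and sequencing of their barcodes. Scores were corrected for input abundance and mapped to Kd with protein pairs of known affinity run in the same pool. Each pool was mated in six replicate cultures.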

Ab-14 is the parent antibody, in scFv form: VH, then the linker GGGGSGGGGSGGGGS, then VL. The light chain is unchanged in all variants.
VH: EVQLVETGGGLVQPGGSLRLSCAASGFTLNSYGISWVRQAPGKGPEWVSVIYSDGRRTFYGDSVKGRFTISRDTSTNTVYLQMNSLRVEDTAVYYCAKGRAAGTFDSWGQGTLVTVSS
VL: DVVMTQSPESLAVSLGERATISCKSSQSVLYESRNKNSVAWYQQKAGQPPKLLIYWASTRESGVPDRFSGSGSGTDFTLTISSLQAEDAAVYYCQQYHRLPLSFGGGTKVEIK

Each variant is given by its three heavy chain CDRs, as the data file delimits them; those of the parent are GFTLNSYGIS, VIYSDGRRTFYGDSVK, GRAAGTFDS. Scale: log10 of Kd in nM, estimated from mating counts; low values are strong binders. An entry "nd" has no value in the source: the pair was not observed among the diploids in that replicate. This suggests poor binding but is not conclusive.

CDR-H1 | CDR-H2 | CDR-H3 | log10 Kd (nM) by replicate | control signals
GFDLNSYGIS | VIYSDGRRTFYQDHVK | GRTAGTFDS | 0.73 / nd / 1.84 / 1.73 / 0.58 / nd | 0 of 18
KFTLNSYGIS | VIYSDGRRTFYGDSVK | GKTAGTFDS | nd / nd / nd / nd / 1.72 / 2.09 | 0 of 18
GFSLNSYGIS | VIYSDGRRTFYADAVK | GKTAGTFDS | 0.00 / 0.04 / -0.37 / 0.02 / -0.25 / -0.04 | 0 of 18
GFDLNSYGIS | VIYSDGRRTFYGDSVK | GQTAGTFDW | 0.59 / 1.66 / 0.90 / 1.57 / 0.68 / 0.43 | 0 of 18
GFDLNSYGIS | VIYSDGRRTFYSDSVK | GQEAGTFDS | -0.04 / -0.79 / -0.34 / -1.10 / -0.68 / -0.42 | 2 of 18 (0.98)
GFELNEYGIS | VIYSDGRRTFYSDSVK | GRQAGTFDS | -0.66 / -0.11 / -1.20 / -0.74 / -0.64 / nd | 0 of 18
GFDLNSYGIS | VIYSDGRRTFYSDRVK | GRTAGTFDS | 0.24 / 0.23 / 0.30 / 0.18 / 0.25 / 0.15 | 1 of 18 (1.50)
KFKLNSYGIS | VIYADGRRTFYGDSVK | GKAAGTFDS | 0.15 / -0.53 / 0.05 / -0.30 / -0.62 / 0.02 | 2 of 18 (2.04)
GFYLNEYGIS | VIYSDGRRTFYGDSVK | GKTAGTFDS | nd / nd / nd / 0.22 / 0.58 / 1.28 | 0 of 18
GFELNSYGIS | VIYADGRRTFYGDSVK | GQAAGTFDM | -0.04 / -0.22 / -0.21 / -0.44 / -0.37 / -0.18 | 0 of 18
GFNLNSYGIS | VIYSDGRRTFYLDSVK | GRQAGTFDS | nd / 1.64 / 1.71 / 1.55 / 1.94 / 1.48 | 0 of 18
MFDLNSYGIS | VIYSDGRRTFYSDSVK | GRTAGTFDS | 1.68 / 2.51 / nd / 1.62 / 2.63 / 2.15 | 1 of 18 (1.76)
GFQLNSYGIS | VIYSDGRRTFYSDSVK | GKTAGTFDS | 0.75 / -0.25 / -0.27 / -0.15 / -0.08 / 0.31 | 0 of 18
GFELNSYGIS | VIYSDGRRTFYMDSVK | GRTAGTFDS | nd / nd / 0.44 / -0.07 / nd / nd | 0 of 18
GYTLNEYGIS | VIYSDGRRTFYGDSVK | GRNAGTFDT | nd / nd / nd / nd / nd / 1.46 | 0 of 18
GFELNSYGIS | VIYADGRRTFYGDNVK | GRAAGTFDS | 1.16 / 1.31 / 1.36 / 1.06 / 1.39 / 1.77 | 1 of 18 (2.17)
GFDLNSYGIS | VIYSDGRRTFYADEVK | GRQAGTFDS | -0.22 / -0.27 / -0.07 / 0.26 / 0.52 / 0.07 | 0 of 18
GKSLNSYGIS | VIYSDGRRTFYGDDVK | GRTAGTFDS | nd / nd / nd / nd / nd / nd | 0 of 18
GFTLNSYGIS | VIYADGRRTFYGDRVK | GQAAGTFDL | 0.87 / 0.50 / 0.37 / 0.53 / 1.03 / 0.96 | 0 of 18
GFDLNSYGIS | VIYSDGRRTFYSDSVK | GKAAGTFDA | 0.64 / 0.72 / 0.99 / 0.58 / 1.19 / -0.06 | 0 of 18
GFSLNSYGIS | VIYSDGRRTFYGDRVK | GWTAGTFDS | 1.49 / 1.68 / 1.38 / nd / 1.34 / 2.75 | 0 of 18
GFDLNSYGIS | VIYSDGRRTFYADRVK | GRQAGTFDS | 0.07 / 0.49 / 0.31 / 0.05 / 0.09 / 0.40 | 0 of 18
GFDLNSYGIS | VIYSDGRRTFYIDSVK | GRWAGTFDS | 0.79 / nd / 0.60 / 0.88 / 0.41 / 0.84 | 0 of 18
GFELNEYGIS | VIYSDGRRTFYGDSVK | GKTAGTFDT | nd / nd / nd / nd / nd / nd | 0 of 18
GFDLNSYGIS | VIYSDGRRTFYADSVK | GRQAGTFDA | 0.07 / -0.38 / -0.63 / -0.28 / -0.38 / -0.30 | 0 of 18
HFDLNSYGIS | VIYSDGRRTFYADSVK | GRTAGTFDS | 0.10 / 0.96 / 0.44 / 0.80 / 0.67 / 0.56 | 0 of 18
GFQLNSYGIS | VIYSDGRRTFYGDNVK | GKTAGTFDS | 0.66 / 1.24 / nd / 0.96 / 1.28 / 0.90 | 0 of 18
GFNLNSYGIS | VIYSDGRRTFYGDQVK | GQAAGTFDS | 1.24 / nd / 1.54 / 0.99 / nd / 1.26 | 0 of 18
GFELNSYGIS | VIYSDGRRTFYHDSVK | GRNAGTFDS | 0.44 / 1.18 / 0.53 / 1.21 / 1.37 / 1.92 | 0 of 18
GFSLNSYGIS | VIYSDGRRTFYGDQVK | GNAAGTFDS | nd / 1.76 / 0.41 / 0.87 / nd / 1.04 | 0 of 18
GFSLNSYGIS | VIYSDGRRTFYVDSVK | GQTAGTFDT | nd / nd / nd / -0.34 / -1.16 / -0.58 | 0 of 18
GFDLNSYGIS | VIYSDGRRTAYGDHVK | GRTAGTFDS | 0.72 / 0.55 / 0.52 / -0.12 / 0.32 / 0.93 | 1 of 18 (3.06)
GFHLNSYGIS | VIYSDGRRTFYGDSVK | GQTAGTFDD | nd / nd / 1.72 / 3.13 / 2.11 / 2.55 | 0 of 18
GFELNSYGIS | VIYADGRRTFYGDQVK | GQAAGTFDS | 0.40 / 0.16 / 0.00 / -0.05 / -0.12 / -0.01 | 0 of 18
GFELNMYGIS | VIYSDGRRTFYGDSVK | GRNAGTFDS | 1.19 / 0.31 / 0.67 / 0.22 / 0.37 / 0.30 | 0 of 18
GFWLNEYGIS | VIYSDGRRTFYHDSVK | GRAAGTFDS | -0.25 / 0.99 / 0.52 / -0.90 / -0.40 / -1.08 | 0 of 18

Again, the first 2 entries without any signal:

CDR-H1	CDR-H2	CDR-H3	log10 Kd (nM) by replicate	control signals
GKSLNSYGIS	VIYSDGRRTFYGDDVK	GRTAGTFDS	nd / nd / nd / nd / nd / nd	0 of 18
GFELNEYGIS	VIYSDGRRTFYGDSVK	GKTAGTFDT	nd / nd / nd / nd / nd / nd	0 of 18

The authors averaged sequences with at least three values out of six and counted those with two or fewer as poor binders. A sequence measured in both rounds can read differently, since the two assays cover different ranges. Background: pairings of all heavy chain designs with three empty control strains gave a value in 1% of cases (median 2.08, 5th percentile 0.84). Values in that range, when seen in few replicates, are hard to tell from nonspecific mating. Also given: how often the same scFv was detected with the empty control strains, with their mean in brackets.